Measurements published in US20240181072A1, “Anti-HER2 Antibody-Immune Agonist Conjugate and Applications Thereof” (GENEQUANTUM HEALTHCARE (SUZHOU) CO., LTD., priority 2021, published 2024).

Tests used:
[1] = system: NCI N87 human gastric cancer cells; test: In vivo anti-tumor efficacy, NCI N87 CDX model in SCID Beige mice; conditions: 5 mg/kg intravenously, subcutaneous NCI N87 tumors, start at 173 mm^3 on average (FIG. 7)
Procedure: For in vivo anti-tumor efficacy study, 1×10^7 NCI N87 human gastric cancer cells were inoculated subcutaneously in the right flank in SCID Beige mice. After 6 days, when tumor volume reached 173 mm^3 on average, the tumor bearing mice were assigned and administered intravenously of Ab0001 or the test immunoconjugate (AC102-5-1-1 or AC102-6-1-1) at 5 mg/kg. The tumor volume was measured twice weekly with calipers.

[2] = system: MC38^hHER2 murine colorectal cancer cells overexpressing human HER2; test: In vivo anti-tumor efficacy, MC38 hHER2 model in C57BL/6 mice; conditions: 10 mg/kg intravenously, subcutaneous MC38 hHER2 tumors, start at 90 mm^3 on average (FIG. 8)
Excerpt: 5×10^5 MC38^hHER2 murine colorectal cancer cells overexpressing human HER2 were inoculated subcutaneously in the right flank in C57BL/6 mice. After 8 days, when tumor volume reached 90 mm^3 on average, the tumor bearing mice were assigned and administered intravenously of Ab0001 or AC102-6-1-1.

Trastuzumab [Ab0001]
anti-tumor activity (tumor volume) [1]: very limited anti-tumor activity | anti-tumor activity (tumor volume) [2]: no obvious anti-tumor activity
